Test results as given in patent publication US20150268247A1, “Assay for Screening of Anti-Viral Compounds That Inhibit Specific Interaction Interfaces Between Cullin5 and an ElonginB/ElonginC/ CBF-beta/HIV-1 Vif Complex” (UNIVERSITY OF ROCHESTER, priority 2012, published 2015).

Chains of the proteins cited; added tags and fusions are not shown. Residues count along the entry.
UniProt P69723, 2-192, added parts left off: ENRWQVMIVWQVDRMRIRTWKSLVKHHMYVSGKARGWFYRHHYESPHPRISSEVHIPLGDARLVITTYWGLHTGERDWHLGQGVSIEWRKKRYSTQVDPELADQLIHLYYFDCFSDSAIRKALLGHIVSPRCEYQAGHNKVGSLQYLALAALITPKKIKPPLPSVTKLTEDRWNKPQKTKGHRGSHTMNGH
UniProt O14508, 158-198: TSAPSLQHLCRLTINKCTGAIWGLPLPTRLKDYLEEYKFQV

Experiments:
Vif/EloB/C/CBFβ = target: T1, Vif/EloB/C/CBFβ (UniProt P69723+Q15369); assay: Fluorescence anisotropy of 5-FAM Cul5 peptides with Vif/EloB/C/CBFβ; assay type: binding, HIV-1 Vif; human EloB/C/CBFβ
T1 construct: Vif in the context of the Vif/EloB/C/CBFβ is full-length Vif (amino acids 1-192); co-expressing EloB1-118 and EloC17-112 from MCS1 and MCS2, respectively, from a pETDuet-1 vector (pEloBC); made in house; host or cells: E. coli BL21(DE3)
Source text: The dissociation constant (KD) for each interaction is provided.

SOCS2/B/C = SOCS2/B/C (Homo sapiens, UniProt O14508+Q15369); assay: biochemical

SMILES	Kd (Vif/EloB/C/CBFβ)	Kd (SOCS2/B/C)
CC(C)C[C@H](NC(=O)[C@H](CC(=O)O)NC(=O)[C@H](Cc1ccccc1)NC(=O)[C@H](Cc1c[nH]c2ccccc12)NC(=O)[C@H](CCC(N)=O)NC(=O)[C@H](CCC(N)=O)NC(=O)[C@H](CCCCN)NC(=O)CCCCCNC(=O)c1ccc2c(c1)C(=O)OC21c2ccc(O)cc2Oc2cc(O)ccc21)C(=O)N[C@@H](Cc1ccccc1)C(=O)N[C@@H](CO)C(=O)N[C@@H](CC(=O)O)C(=O)N[C@H](C(=O)N[C@@H](Cc1c[nH]cn1)C(=O)O)C(C)C [Cul5(37-48)]	15.6 µM	–
CC[C@H](C)[C@H](NC(=O)[C@H](CCCCN)NC(=O)[C@H](C)NC(=O)[C@@H]1CCCN1C(=O)CNC(=O)[C@H](CCCCN)NC(=O)[C@H](CC(=O)O)NC(=O)[C@H](CC(=O)O)NC(=O)[C@H](Cc1c[nH]c2ccccc12)NC(=O)[C@H](CC(C)C)NC(=O)[C@H](CS)NC(=O)[C@@H](NC(=O)[C@H](C)NC(=O)[C@H](Cc1c[nH]cn1)NC(=O)[C@@H](NC(=O)[C@H](CC(=O)O)NC(=O)[C@H](CO)NC(=O)[C@H](Cc1ccccc1)NC(=O)[C@H](CC(C)C)NC(=O)CCCCCNC(=O)c1ccc2c(c1)C(=O)OC21c2ccc(O)cc2Oc2cc(O)ccc21)C(C)C)C(C)C)C(=O)N[C@@H](Cc1c[nH]cn1)C(=O)N[C@@H](CCC(N)=O)C(=O)N[C@@H](C)C(=O)N[C@@H](CC(C)C)C(=O)O [Cul5(43-65)]	–	7.3 µM
